Test results published in paper PMC4255142 (Bioorganic & medicinal chemistry letters, 2014).

Target: T1, holocarboxylase synthetase (HLCS) (Homo sapiens, UniProt P50747)
T1 sequence (P50747 1-726): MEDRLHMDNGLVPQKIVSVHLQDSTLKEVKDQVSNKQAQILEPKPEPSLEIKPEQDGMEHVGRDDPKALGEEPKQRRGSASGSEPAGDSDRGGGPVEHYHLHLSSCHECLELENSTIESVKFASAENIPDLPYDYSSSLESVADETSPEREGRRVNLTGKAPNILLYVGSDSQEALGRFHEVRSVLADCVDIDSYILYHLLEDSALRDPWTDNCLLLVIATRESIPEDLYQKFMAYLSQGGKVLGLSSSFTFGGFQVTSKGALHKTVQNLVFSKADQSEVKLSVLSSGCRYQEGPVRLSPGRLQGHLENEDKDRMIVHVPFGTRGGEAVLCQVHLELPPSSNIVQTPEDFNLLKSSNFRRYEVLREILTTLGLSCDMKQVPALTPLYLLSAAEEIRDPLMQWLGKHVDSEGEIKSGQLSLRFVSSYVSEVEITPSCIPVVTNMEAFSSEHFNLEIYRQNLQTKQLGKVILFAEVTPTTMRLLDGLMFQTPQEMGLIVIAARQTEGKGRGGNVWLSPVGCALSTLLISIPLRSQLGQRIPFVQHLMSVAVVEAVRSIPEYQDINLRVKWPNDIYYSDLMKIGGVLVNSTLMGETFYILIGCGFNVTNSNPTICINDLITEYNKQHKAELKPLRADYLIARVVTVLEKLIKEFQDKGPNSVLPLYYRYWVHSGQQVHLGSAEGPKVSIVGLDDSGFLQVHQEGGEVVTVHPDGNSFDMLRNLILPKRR
Test: Inhibition of HLCS-catalysed biotinylation of recombinant p67
Type: biochemical

IC50: 7 µM | Ki: 7 µM
SMILES: Nc1ncnc2c1ncn2[C@@H]1O[C@H](COP(=O)(O)OCCCCC[C@@H]2SC[C@@H]3NC(=O)N[C@@H]32)[C@@H](O)[C@H]1O [biotinol-5'-AMP, biotinol-5′-AMP, reference compound]
